Earlier results on one compound are cited in US4663343A, “Substituted naphthalenyloxy-1,2-diaminocyclohexyl amide compounds” (dated 1987).

This data set has as its system kappa opioid receptor. As to conditions: P. V. Vanvoigtlander et al., J. Pharmacol. Exp. Ther., 224: 7-12 (1983).

As for `CN(C(=O)Cc1ccc(Cl)c(Cl)c1)[C@@H]1CCCC[C@H]1N1CCCC1` (relative stereo), the “kappa opioid receptor agonist activity (in words)” value was “selective kappa opioid receptor agonist activity”.
